The values below are quoted from earlier work in patent US20090209474A1, “NOVEL USES FOR DRUGS TARGETING GLUTAMINE SYNTHETASE” (NEWTHERA, priority 2005, published 2009).

This series has as its system a number of animal species. The conditions noted are these: in vivo; cited from earlier work.

`CS(=N)(=O)CC[C@H](N)C(=O)O` (stereo partly shown) [MS, 2-amino-4-(S-methylsulfonimidosyl)butanoic acid]: the “doses producing neurological disorders, in particular seizures” value is given as ≥ 2 mg/kg body weight.
